# Measurements published in PubChem BioAssay AID504652 (National Center for Advancing Translational Sciences (NCATS), 2011).
# The chains behind the UniProt entries cited, without tags or fusion partners.
# UniProt P21728, whole entry, looked up: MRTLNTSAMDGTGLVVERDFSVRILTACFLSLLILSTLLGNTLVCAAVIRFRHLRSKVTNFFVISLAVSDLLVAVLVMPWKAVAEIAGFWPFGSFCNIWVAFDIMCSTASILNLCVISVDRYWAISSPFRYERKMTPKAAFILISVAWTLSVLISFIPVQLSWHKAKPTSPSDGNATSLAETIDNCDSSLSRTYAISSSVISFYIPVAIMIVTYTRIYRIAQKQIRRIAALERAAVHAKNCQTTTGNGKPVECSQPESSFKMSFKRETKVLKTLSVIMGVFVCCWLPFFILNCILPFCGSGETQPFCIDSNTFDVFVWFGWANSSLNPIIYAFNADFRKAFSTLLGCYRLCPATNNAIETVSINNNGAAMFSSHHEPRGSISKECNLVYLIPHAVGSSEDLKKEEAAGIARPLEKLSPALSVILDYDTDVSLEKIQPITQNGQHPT
# The list shows a part of the results, in another mix than the full data. Calls of active or inactive are those of the source. Cut-off read from the data, not from the text of the source: active = activity change below about -30%; inactive = the rest.
# Target: D(1A) dopamine receptor (Homo sapiens) (UniProt P21728)
# Assay: Antagonist of Human D 1 Dopamine Receptor: qHTS
# Details: HEK293 TREx D1 cells, calcium flux, dopamine EC80; at 10 µM; stronger effect = lower value
# Source text: Dopamine receptors (DARs) are involved in the etiology and/or therapy of a number of neuropsychiatric and endocrine disorders. For instance, all receptor-based antiparkinsonian drugs work via stimulating the […] DAR subtype whereas all FDA-approved antipsychotic agents are antagonists of this receptor. […] There are three different types of allosteric modulators that we are seeking, two of which will stimulate or augment receptor signaling, allosteric agonists and potentiators, while the third, allosteric antagonists, will attenuate receptor signaling. The present primary screening assay measures compound antagonism after an EC80 addition of dopamine by tracking calcium flux in a […], inducible Hek293 Trex D1 cell line. NIH Chemical Genomics Center [NCGC] NIH Molecular Libraries Probe Centers Network [MLPCN] MLPCN Grant: NS064831-01 Assay Submitter (PI): David Sibley
# Freshly passaged cells are plated in 1536 well black, clear bottom plates at a density of 4000 cells/well in 3 ul of complete media containing 1x tetracycline inducer. After an overnight incubation at 30 C in 5% CO2, cells are loaded with 2 ul of the no wash Calcium Assay Kit (ABD Bioquest) and incubated at room temperature for 30 to 90 minutes. Agonist read: A 10 cycle (1 second/cycle) baseline measurement is taken and then the FDSS online 1536 pintool delivers 23 nl of compound library (as well as dopamine controls) to the plate. The plate is measured for kinetically at 1 cycle/sec for 180 seconds. Following the 180 second read, 1 ul of an EC80 (negative modulation assay) is delivered by an onboard pipette head. Measurements are taken kinetically for an additional 180 seconds.
# % is set by controls: 0 for no effect and ±100 for the full control effect.
row,Structure (SMILES),"activity change, negative = inhibition"
1,CCOC(=O)Nc1ccc([As](=O)(O)O)c(O)c1,inactive: -2.24%
2,CCCCOc1ccc(C(=O)NCC2(N3CCCCC3)CCCCC2)cc1OC,inactive: 0.106%
3,Cc1cc(SC(NC(=O)c2ccccc2)C(Cl)(Cl)Cl)nc(C(C)C)n1 (stereo unspecified),inactive: -9.56%
4,O=P1(Nc2ncccn2)COc2ccccc2OC1,inactive: -18.5%
5,O=P1(Nc2ccc(Br)cn2)COc2ccccc2OC1,inactive: -5.77%
6,NS(=O)(=O)c1cccc(NC(=O)COC(=O)C(O)(c2ccccc2)c2ccccc2)c1,inactive: -7.07%
7,O=[As](O)(c1cccs1)c1cccs1,inactive: 6.74%
8,Cc1ccc(OCC(=O)OC2CN3CCC2CC3)cc1 (stereo unspecified),inactive: -5.36%
9,Nc1cccc([As](=O)(O)c2ccccc2)c1,inactive: -10.9%
10,Cc1nn(-c2ccccc2)c2c1P(=O)(N1CCOCC1)N(C)C(c1ccccc1)=N2 (stereo unspecified),inactive: -7.81%
11,CC1CCC(C(C)C)C(OP(=O)(Nc2ccccn2)c2ccccc2)C1 (stereo unspecified),inactive: -11.7%
12,Cc1ccc(C(=O)OC2CN3CCC2CC3)cc1 (stereo unspecified),inactive: 0.766%
13,O=C(/C=C/c1ccccc1)OC1CN2CCC1CC2 (stereo unspecified),inactive: -0.906%
14,CN(C)C1(CNC(=O)c2ccc(S(C)(=O)=O)cc2)CCCCC1,inactive: -0.641%
15,COc1ccccc1CNC(=O)COC(=O)C(O)(c1ccccc1)c1ccccc1,inactive: -1.64%
16,O=[As](O)(c1ccccc1Br)c1ccccc1Br,inactive: 9.73%
17,CC(C)/C=N\N=C(\N)N[N+](=O)[O-],inactive: 9.95%
18,CN(C(=O)Cc1ccc(Cl)c(Cl)c1)[C@@H]1CCCC[C@H]1N1CCCC1,inactive: 14.9%
19,CCOP(=O)(Nc1ccc(C)cn1)OCC,inactive: -3.69%
20,O=P1(Nc2ccccn2)COc2ccccc2OC1,inactive: 2.23%
21,CCC1=CC2Cc3nc4ccc(Cl)cc4c(N)c3C(C1)C2 (stereo unspecified),inactive: -18.3%
22,CCOP(=O)(NC(=NC(C)c1ccccc1)NC(C)c1ccccc1)OCC (stereo unspecified),inactive: 6.4%
23,Clc1n[nH]nc1-c1nn[nH][15n]1,active: -32.6%

row,Structure (SMILES),"activity change, negative = inhibition"
1,CC(C)(C)C(=O)NC(Sc1ncccn1)C(Cl)(Cl)Cl (stereo unspecified),inactive: 11.9%
2,CCCOP(=S)(Nc1nc(N)cc(=O)[nH]1)OCCC,inactive: -11.6%
3,Nc1cccc2c([As](=O)(O)O)cccc12,inactive: 22.8%
4,Cc1ccc(NCCc2c([N+](=O)[O-])cc([N+](=O)[O-])cc2[N+](=O)[O-])cc1,inactive: -8.41%
5,COc1cc(C2NCCC3(OCCO3)C2(C)C)cc(OC)c1OC (stereo unspecified),inactive: 1.57%
6,CCOP(=O)(Nc1cccc2ccccc12)OCC,inactive: 7.36%
7,COc1cc(C(=O)NCC2(N3CCOCC3)CCCCC2)cc(Cl)c1OC(C)C,inactive: 10.6%
8,O=[As](O)(O)c1cccnc1,inactive: 26.4%
9,CS(=O)(=O)c1ccc(Cl)c(NC(=O)COC(=O)C(O)(c2ccccc2)c2ccccc2)c1,inactive: 10%
10,O=C(OC1CN2CCC1CC2)c1ccc(Cl)cc1 (stereo unspecified),inactive: -6.98%
11,O=[As](O)(c1cccc(O)c1)c1cccc(O)c1,inactive: 7.69%
12,Cc1cccc(OCC(=O)OC2CN3CCC2CC3)c1 (stereo unspecified),inactive: -6.3%
13,NC(=O)Nc1ccc([As](=O)(O)O)cc1,inactive: 24.4%
14,O=[N+]([O-])c1ccc2c(c1)nnn2O,inactive: -24.2%
15,N#CCCN(C(=O)COC(=O)C(O)(c1ccccc1)c1ccccc1)c1ccc(F)cc1,inactive: 12.1%
16,CN(C(=O)Cc1ccccc1)[C@@H]1CC[C@]2(CCCO2)C[C@H]1N1CCCC1,inactive: 1.67%
17,CCOP1(=S)c2c(C)nn(CCC#N)c2N=C(c2ccc(F)cc2)N1C (stereo unspecified),inactive: -15.3%
18,CS(=O)(=O)c1cc([N+](=O)[O-])c2no[n+]([O-])c2c1,inactive: 6.73%
19,CCOP1(=S)c2c(C)nn(CCC#N)c2N=C(c2ccccc2F)N1C (stereo unspecified),inactive: 5.59%
20,O=P(Nc1nccs1)(c1ccccc1)c1nc2ccccc2s1 (stereo unspecified),inactive: 6.98%
21,O=P(Nc1nccs1)(Oc1ccccc1)Oc1ccccc1,inactive: -8.16%
22,Nc1ccccc1[As](=O)(O)c1ccccc1,inactive: -27%
23,O=C(O)COc1ccc([As](=O)(O)O)cc1[N+](=O)[O-],inactive: -7.05%
